## Binding of CDR-mutated scFvs to a peptide of the spike HR2 region

Values reported by Li et al. 2023, doi:10.1038/s41467-023-39022-2 (FLAb copy).

All variants were tested on one target, the spike HR2 peptide PDVDLGDISGINAS (SARS-CoV-2).

Parent scFv Ab-14: VH joined to VL by a 15-residue (Gly4Ser)3 linker. Changes lie in the light chain CDRs alone.
VH: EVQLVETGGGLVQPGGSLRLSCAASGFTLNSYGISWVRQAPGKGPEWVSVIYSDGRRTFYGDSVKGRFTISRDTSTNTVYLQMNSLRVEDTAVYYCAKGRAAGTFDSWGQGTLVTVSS
VL: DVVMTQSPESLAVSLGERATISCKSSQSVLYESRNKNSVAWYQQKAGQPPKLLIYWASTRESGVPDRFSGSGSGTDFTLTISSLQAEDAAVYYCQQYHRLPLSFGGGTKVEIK

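The starting antibody came from a phage panning campaign against this peptide. The variants were designed computationally from a first round of random CDR variants and then made and measured. Their group label is 14L_GP_Gen (GP: Gaussian process model; Gen: genetic algorithm; a sequence that several methods proposed may carry one label only). Affinity was read by AlphaSeq, a pooled yeast mating assay with surface-displayed partners. Pairs that bind mate more often; barcode pairs of the diploids are counted by sequencing. The ratio of observed to expected reads was calibrated, replicate by replicate, on BCL2-family standards whose Kd was known from biolayer interferometry. Each pool was mated in six replicate cultures.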

Positions count from residue 1 of the parent VL; S25L puts L in place of S.
Numbers give log10(Kd / nM), so 0 is 1 nM and 3 is 1 µM. Smaller is tighter.
An entry "nd" has no value in the source: the pair was not observed among the diploids in that replicate. This suggests poor binding but is not conclusive.
The authors' rule: three or more of the six replicates give a measured affinity, fewer mean a poor binder.
Background: pairings of all light chain designs with three empty control strains gave a value in 4% of cases (median 2.64, 5th percentile 1.59). Values in that range, when seen in few replicates, are hard to tell from nonspecific mating. For each scFv, signals with the empty controls are counted beside the result.
Values of this round are not directly comparable with the first-round values of the same sequences.

For S25L+V29E+W56N+E61M+S62E, the assay gave -0.41, -0.10, -0.47, -0.56, -0.22, -0.14 (controls 0 of 18).
For S25V+W56E+T59C, the assay gave 0.12, -0.02, -0.16, -0.12, -0.42, -0.10 (controls 0 of 18).
For S25F+V29E+W56N+E61L, the assay gave -0.04, 0.53, 0.57, 0.26, 0.33, 0.67 (controls 0 of 18).
For S25L+S28Q+W56N+S62Q, the assay gave -0.57, -0.78, -0.68, -1.09, -0.86, -0.83 (controls 0 of 18).
For S25V+W56N+S103L, the assay gave 1.05, 0.32, 0.53, 0.59, 0.57, 0.51 (controls 0 of 18).
For S25L+S26P+S28Q+W56N, the assay gave 0.22, -0.05, 0.02, 0.05, -0.17, -0.02 (controls 4 of 18).
For S25L+S26P+L30E+W56H, the assay gave 0.38, 0.27, 0.33, 0.11, 0.08, 0.29 (controls 1 of 18).
For S25L+V29M+S38N+W56N, the assay gave -0.42, -0.48, -0.59, -0.71, -0.67, -0.41 (controls 2 of 18).
For S25L+W56E+R60K, the assay gave 0.23, -0.39, -0.55, -0.30, -0.27, -0.24 (controls 0 of 18).
For S25L+W56E+T59Q+S62D, the assay gave -0.36, -0.50, -0.41, -0.43, -0.35, -0.37 (controls 0 of 18).
For S25F+S26E+V29E+W56N+E61M, the assay gave -0.37, -0.59, -0.48, -0.47, -0.20, -0.33 (controls 0 of 18).
For S25L+V29M+W56G, the assay gave -0.08, 0.01, -0.05, -0.33, -0.20, 0.12 (controls 0 of 18).
For S25V+Q27E+W56N, the assay gave 0.06, -0.14, -0.20, -0.27, -0.25, -0.02 (controls 2 of 18).
For S25V+V29W+W56N+T59Q+Q96S, the assay gave nd, -0.12, 1.05, 0.99, 0.22, nd (controls 0 of 18).
For S25L+S26E+V29E+W56N+S62D, the assay gave -0.19, -0.31, -0.40, -0.35, -0.57, -0.12 (controls 1 of 18).
For S25L+V29W+L30E+W56N+E61L, the assay gave 0.11, -0.02, -0.22, -0.31, -0.09, 0.07 (controls 4 of 18).
For S25L+S28E+V29W+W56N, the assay gave 0.21, 0.44, -0.13, -0.35, -0.02, 0.17 (controls 1 of 18).
For S25L+S26Y+V29H+W56N+E61L, the assay gave 0.25, 0.26, 0.15, 0.07, 0.41, 0.41 (controls 1 of 18).
For S25L+S26A+S38N+W56E, the assay gave -0.02, -0.27, -0.04, -0.39, -0.39, 0.05 (controls 0 of 18).
For S25L+W56N+S62Q+S103Q, the assay gave 0.06, -0.05, -0.14, -0.06, -0.02, 0.03 (controls 0 of 18).
For S25L+R34M+W56N, the assay gave -0.01, 0.14, 0.36, 0.15, 0.06, 0.18 (controls 0 of 18).
For S25F+S26E+V29E+W56E+T59Q, the assay gave -0.20, -0.55, -0.38, -0.94, -0.33, -0.41 (controls 1 of 18).
For S25L+L30G+W56N, the assay gave 0.98, 0.67, 0.35, 0.52, 0.24, 1.09 (controls 0 of 18).
For S25L+V29Q+N35A+W56N, the assay gave 0.28, 0.09, -0.01, 0.10, 0.08, 0.11 (controls 0 of 18).
For S25I+Y31G+W56D, the assay gave -0.21, -0.26, -0.40, -0.49, -0.40, -0.07 (controls 0 of 18).
For S25L+S26E+V29Q+W56E, the assay gave 0.05, 0.32, 0.19, 0.07, 0.01, 0.39 (controls 1 of 18).
For S25L+S26Q+V29H+N35M+W56N+T59Q, the assay gave 0.37, 0.48, 0.38, 0.28, 0.55, 0.68 (controls 1 of 18).
For S25L+S26Y+W56N+A57G, the assay gave 0.00, 0.08, 0.09, -0.28, -0.10, -0.04 (controls 2 of 18).
For S25L+V29M+W56N+E61Y, the assay gave 0.32, 0.28, 0.11, -0.05, 0.23, 0.12 (controls 2 of 18).
For S25L+S33E+W56N+E61M, the assay gave -0.07, -0.14, -0.24, -0.30, -0.33, -0.27 (controls 0 of 18).
For S25L+S26E+Q27E+V29W+W56N, the assay gave 0.47, 0.50, 0.28, 0.42, 0.37, 0.70 (controls 3 of 18).
For S25V+V29W+S33E+W56N+T59Q, the assay gave 0.03, -0.07, -0.20, -0.16, -0.24, -0.05 (controls 2 of 18).
For S25L+S28Q+W56N+S62D, the assay gave -0.09, -0.29, -0.22, -0.33, -0.16, 0.00 (controls 0 of 18).
For S25L+N35M+W56E+E61M, the assay gave 0.71, 0.65, 0.39, 0.24, 0.88, 0.61 (controls 2 of 18).
For S25F+S26E+V29Q+L30G+W56N, the assay gave -0.33, -0.16, -0.48, -0.55, -0.46, -0.21 (controls 2 of 18).
For S25L+S26Y+V29N+W56N, the assay gave 0.12, 0.12, -0.14, 0.06, -0.02, -0.05 (controls 2 of 18).
For S25L+S26Q+V29E+N35M+W56N+E61M, the assay gave 0.41, 0.62, 0.83, 0.81, 0.60, 0.93 (controls 0 of 18).
For S25L+S26Y+W56N+S62D, the assay gave 0.30, 0.08, 0.10, 0.25, 0.17, 0.16 (controls 1 of 18).
For S25L+V29K+W56E+T59Q, the assay gave 0.18, 0.15, 0.05, 0.20, 0.34, 0.34 (controls 1 of 18).
For S25V+W56D+E61L, the assay gave 0.74, 0.75, 0.45, 0.62, 0.80, 0.89 (controls 1 of 18).
For S25L+V29W+W56N+S62K, the assay gave 0.32, -0.01, -0.08, -0.38, -0.28, 0.04 (controls 2 of 18).
For S25L+S26Q+V29T+W56N+T59Q, the assay gave 0.19, 0.46, 0.35, 0.12, 0.63, 0.85 (controls 0 of 18).
For S25L+W56N+T59K, the assay gave 0.19, 0.15, -0.01, 0.11, 0.09, 0.37 (controls 0 of 18).
For S25L+L30P+W56E+S62V, the assay gave 0.08, 0.03, -0.13, -0.08, -0.09, 0.12 (controls 4 of 18).
For S25L+V29D+W56D+Q96D, the assay gave -0.12, -0.05, -0.16, -0.45, -0.25, 0.00 (controls 0 of 18).
For S25L+V29N+W56N+T59Q+S62V, the assay gave 0.12, 0.09, -0.16, -0.16, 0.04, 0.13 (controls 1 of 18).
For S25L+L30P+W56E+S58N, the assay gave -0.01, -0.19, -0.29, -0.39, -0.40, -0.16 (controls 1 of 18).

The 4 strongest on average among those seen in every replicate, once more:

With S25L+S28Q+W56N+S62Q the result was -0.57, -0.78, -0.68, -1.09, -0.86, -0.83 (controls 0 of 18).
With S25L+V29M+S38N+W56N the result was -0.42, -0.48, -0.59, -0.71, -0.67, -0.41 (controls 2 of 18).
With S25F+S26E+V29E+W56E+T59Q the result was -0.20, -0.55, -0.38, -0.94, -0.33, -0.41 (controls 1 of 18).
With S25F+S26E+V29E+W56N+E61M the result was -0.37, -0.59, -0.48, -0.47, -0.20, -0.33 (controls 0 of 18).